Test results as given in patent publication US4762846A (priority 1986, dated 1988).

What was measured:
[1] = test system: benzodiazepine receptors ([3H]diazepam site); assay type: binding, rat
[2] = test system: amphetamine-induced stereotypy; conditions: rat, in vivo

How did the “activity toward the [3H]diazepam site” value [1] turn out when S=C=Nc1cccc(C2(N3CCCCC3)CCCCC2)c1 [Metaphit, 1-[1-(3-isothiocyanatophenyl)cyclohexyl]piperidine] was run?
Its value is “inactive in all respects”.

What about the “antagonism of amphetamine-induced stereotypy” value [2] of the same compound?
The value was “did not antagonize amphetamine-induced stereotypy”.
